Laboratory results: PubChem BioAssay (NCI)
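How tested: cells in 96-well plates exposed to compound for 48 hours at five concentrations. GI50 is the concentration that inhibits growth by half. TGI marks complete inhibition of growth.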

What was measured:
Test in all cases: inhibition of tumour cell growth, NCI panel, 48 h
786-0 renal = tested on: 786-0 renal
A549 NSCLC = tested on: A549 NSCLC
ACHN renal = tested on: ACHN renal
CAKI-1 renal = tested on: CAKI-1 renal
CCRF-CEM leukemia = tested on: CCRF-CEM leukemia
COLO 205 colon = tested on: COLO 205 colon
DU-145 prostate = tested on: DU-145 prostate
EKVX NSCLC = tested on: EKVX NSCLC
HCC-2998 colon = tested on: HCC-2998 colon
HCT-116 colon = tested on: HCT-116 colon
HCT-15 colon = tested on: HCT-15 colon
HL-60(TB) leukemia = tested on: HL-60(TB) leukemia
HOP-62 NSCLC = tested on: HOP-62 NSCLC
HOP-92 NSCLC = tested on: HOP-92 NSCLC
HS 578T breast = tested on: HS 578T breast
HT29 colon = tested on: HT29 colon
IGROV1 ovarian = tested on: IGROV1 ovarian
K-562 leukemia = tested on: K-562 leukemia
KM12 colon = tested on: KM12 colon
LOX IMVI melanoma = tested on: LOX IMVI melanoma
M14 melanoma = tested on: M14 melanoma
MALME-3M melanoma = tested on: MALME-3M melanoma
MCF7 breast = tested on: MCF7 breast
MDA-MB-231 breast = tested on: MDA-MB-231 breast
MDA-MB-435 = tested on: MDA-MB-435
MDA-N = tested on: MDA-N
MOLT-4 leukemia = tested on: MOLT-4 leukemia
NCI-H226 lung = tested on: NCI-H226 lung
NCI-H23 lung = tested on: NCI-H23 lung
NCI-H322M lung = tested on: NCI-H322M lung
NCI-H460 lung = tested on: NCI-H460 lung
NCI/ADR-RES ovarian = tested on: NCI/ADR-RES ovarian
OVCAR-3 ovarian = tested on: OVCAR-3 ovarian
OVCAR-4 ovarian = tested on: OVCAR-4 ovarian
OVCAR-5 ovarian = tested on: OVCAR-5 ovarian
OVCAR-8 ovarian = tested on: OVCAR-8 ovarian
PC-3 prostate = tested on: PC-3 prostate
RPMI-8226 leukemia = tested on: RPMI-8226 leukemia
RXF 393 renal = tested on: RXF 393 renal
SF-268 CNS = tested on: SF-268 CNS
SF-295 CNS = tested on: SF-295 CNS
SF-539 CNS = tested on: SF-539 CNS
SK-MEL-2 melanoma = tested on: SK-MEL-2 melanoma
SK-MEL-28 melanoma = tested on: SK-MEL-28 melanoma
SK-MEL-5 melanoma = tested on: SK-MEL-5 melanoma
SK-OV-3 ovarian = tested on: SK-OV-3 ovarian
SN12C renal = tested on: SN12C renal
SNB-19 CNS = tested on: SNB-19 CNS
SR leukemia = tested on: SR leukemia
SW-620 colon = tested on: SW-620 colon
T-47D breast = tested on: T-47D breast
TK-10 renal = tested on: TK-10 renal
U251 CNS = tested on: U251 CNS
UACC-257 melanoma = tested on: UACC-257 melanoma
UACC-62 melanoma = tested on: UACC-62 melanoma
UO-31 renal = tested on: UO-31 renal

Which GI50 (786-0 renal) does the source give for n1[nH]nc2c1c1n[nH]nc1c1n[nH]nc21 here?
Its GI50 is greater than 100 µM.

And the TGI (786-0 renal)?
Its TGI is greater than 100 µM.

And the GI50 (A549 NSCLC)?
Its GI50 is greater than 100 µM.

What about the TGI (A549 NSCLC) of the same molecule?
The TGI was greater than 100 µM.

And the GI50 (ACHN renal)?
The GI50 was greater than 100 µM.

What about the TGI (ACHN renal) of the same molecule?
Its TGI is greater than 100 µM.

What about the GI50 (CAKI-1 renal) of the same molecule?
Its GI50 is greater than 100 µM.

And the TGI (CAKI-1 renal)?
Its TGI is greater than 100 µM.

What about the GI50 (CCRF-CEM leukemia) of the same molecule?
The GI50 was greater than 100 µM.

What about the TGI (CCRF-CEM leukemia) of the same molecule?
Its TGI is greater than 100 µM.

What about the GI50 (COLO 205 colon) of the same molecule?
Its GI50 is greater than 100 µM.

What about the TGI (COLO 205 colon) of the same molecule?
The TGI was greater than 100 µM.

And the GI50 (DU-145 prostate)?
The GI50 was greater than 100 µM.

What about the TGI (DU-145 prostate) of the same molecule?
Its TGI is greater than 100 µM.

And the GI50 (EKVX NSCLC)?
The GI50 was greater than 100 µM.

What about the TGI (EKVX NSCLC) of the same molecule?
The TGI was greater than 100 µM.

And the GI50 (HCC-2998 colon)?
Its GI50 is greater than 100 µM.

What about the TGI (HCC-2998 colon) of the same molecule?
Its TGI is greater than 100 µM.

What about the GI50 (HCT-116 colon) of the same molecule?
Its GI50 is greater than 100 µM.

What about the TGI (HCT-116 colon) of the same molecule?
Its TGI is greater than 100 µM.

What about the GI50 (HCT-15 colon) of the same molecule?
Its GI50 is greater than 100 µM.

And the TGI (HCT-15 colon)?
The TGI was greater than 100 µM.

What about the GI50 (HL-60(TB) leukemia) of the same molecule?
The GI50 was greater than 100 µM.

What about the TGI (HL-60(TB) leukemia) of the same molecule?
The TGI was greater than 100 µM.

And the GI50 (HOP-62 NSCLC)?
The GI50 was greater than 100 µM.

And the TGI (HOP-62 NSCLC)?
The TGI was greater than 100 µM.

And the GI50 (HOP-92 NSCLC)?
The GI50 was greater than 100 µM.

What about the TGI (HOP-92 NSCLC) of the same molecule?
Its TGI is greater than 100 µM.

What about the GI50 (HS 578T breast) of the same molecule?
Its GI50 is greater than 100 µM.

What about the TGI (HS 578T breast) of the same molecule?
The TGI was greater than 100 µM.

And the GI50 (HT29 colon)?
The GI50 was greater than 100 µM.

And the TGI (HT29 colon)?
The TGI was greater than 100 µM.

What about the GI50 (IGROV1 ovarian) of the same molecule?
The GI50 was greater than 100 µM.

And the TGI (IGROV1 ovarian)?
Its TGI is greater than 100 µM.

What about the GI50 (K-562 leukemia) of the same molecule?
The GI50 was greater than 100 µM.

And the TGI (K-562 leukemia)?
The TGI was greater than 100 µM.

And the GI50 (KM12 colon)?
The GI50 was greater than 100 µM.

What about the TGI (KM12 colon) of the same molecule?
Its TGI is greater than 100 µM.

What about the GI50 (LOX IMVI melanoma) of the same molecule?
The GI50 was greater than 100 µM.

What about the TGI (LOX IMVI melanoma) of the same molecule?
Its TGI is greater than 100 µM.

And the GI50 (M14 melanoma)?
The GI50 was greater than 100 µM.

What about the TGI (M14 melanoma) of the same molecule?
Its TGI is greater than 100 µM.

What about the GI50 (MALME-3M melanoma) of the same molecule?
The GI50 was greater than 100 µM.

And the TGI (MALME-3M melanoma)?
Its TGI is greater than 100 µM.

What about the GI50 (MCF7 breast) of the same molecule?
The GI50 was greater than 100 µM.

And the TGI (MCF7 breast)?
The TGI was greater than 100 µM.

And the GI50 (MDA-MB-231 breast)?
The GI50 was greater than 100 µM.

And the TGI (MDA-MB-231 breast)?
The TGI was greater than 100 µM.

What about the GI50 (MDA-MB-435) of the same molecule?
The GI50 was greater than 100 µM.

What about the TGI (MDA-MB-435) of the same molecule?
The TGI was greater than 100 µM.

What about the GI50 (MDA-N) of the same molecule?
The GI50 was greater than 100 µM.

What about the TGI (MDA-N) of the same molecule?
Its TGI is greater than 100 µM.

What about the GI50 (MOLT-4 leukemia) of the same molecule?
The GI50 was greater than 100 µM.

What about the TGI (MOLT-4 leukemia) of the same molecule?
Its TGI is greater than 100 µM.

What about the GI50 (NCI-H226 lung) of the same molecule?
Its GI50 is greater than 100 µM.

And the TGI (NCI-H226 lung)?
The TGI was greater than 100 µM.

What about the GI50 (NCI-H23 lung) of the same molecule?
The GI50 was greater than 100 µM.

What about the TGI (NCI-H23 lung) of the same molecule?
The TGI was greater than 100 µM.

And the GI50 (NCI-H322M lung)?
Its GI50 is greater than 100 µM.

What about the TGI (NCI-H322M lung) of the same molecule?
The TGI was greater than 100 µM.

What about the GI50 (NCI-H460 lung) of the same molecule?
The GI50 was greater than 100 µM.

And the TGI (NCI-H460 lung)?
Its TGI is greater than 100 µM.

And the GI50 (NCI/ADR-RES ovarian)?
The GI50 was greater than 100 µM.

What about the TGI (NCI/ADR-RES ovarian) of the same molecule?
The TGI was greater than 100 µM.

And the GI50 (OVCAR-3 ovarian)?
Its GI50 is greater than 100 µM.

And the TGI (OVCAR-3 ovarian)?
The TGI was greater than 100 µM.

What about the GI50 (OVCAR-4 ovarian) of the same molecule?
The GI50 was greater than 100 µM.

What about the TGI (OVCAR-4 ovarian) of the same molecule?
The TGI was greater than 100 µM.

And the GI50 (OVCAR-5 ovarian)?
Its GI50 is greater than 100 µM.

And the TGI (OVCAR-5 ovarian)?
The TGI was greater than 100 µM.

And the GI50 (OVCAR-8 ovarian)?
The GI50 was greater than 100 µM.

And the TGI (OVCAR-8 ovarian)?
Its TGI is greater than 100 µM.

And the GI50 (PC-3 prostate)?
Its GI50 is greater than 100 µM.

What about the TGI (PC-3 prostate) of the same molecule?
The TGI was greater than 100 µM.

What about the GI50 (RPMI-8226 leukemia) of the same molecule?
The GI50 was greater than 100 µM.

What about the TGI (RPMI-8226 leukemia) of the same molecule?
Its TGI is greater than 100 µM.

What about the GI50 (RXF 393 renal) of the same molecule?
Its GI50 is greater than 100 µM.

And the TGI (RXF 393 renal)?
Its TGI is greater than 100 µM.

And the GI50 (SF-268 CNS)?
The GI50 was greater than 100 µM.

And the TGI (SF-268 CNS)?
Its TGI is greater than 100 µM.

And the GI50 (SF-295 CNS)?
The GI50 was greater than 100 µM.

What about the TGI (SF-295 CNS) of the same molecule?
Its TGI is greater than 100 µM.

And the GI50 (SF-539 CNS)?
The GI50 was greater than 100 µM.

And the TGI (SF-539 CNS)?
The TGI was greater than 100 µM.

And the GI50 (SK-MEL-2 melanoma)?
The GI50 was greater than 100 µM.

And the TGI (SK-MEL-2 melanoma)?
The TGI was greater than 100 µM.

And the GI50 (SK-MEL-28 melanoma)?
The GI50 was greater than 100 µM.

And the TGI (SK-MEL-28 melanoma)?
Its TGI is greater than 100 µM.

And the GI50 (SK-MEL-5 melanoma)?
The GI50 was greater than 100 µM.

And the TGI (SK-MEL-5 melanoma)?
The TGI was greater than 100 µM.

What about the GI50 (SK-OV-3 ovarian) of the same molecule?
Its GI50 is greater than 100 µM.

And the TGI (SK-OV-3 ovarian)?
The TGI was greater than 100 µM.

And the GI50 (SN12C renal)?
Its GI50 is greater than 100 µM.

What about the TGI (SN12C renal) of the same molecule?
The TGI was greater than 100 µM.

What about the GI50 (SNB-19 CNS) of the same molecule?
The GI50 was greater than 100 µM.

What about the TGI (SNB-19 CNS) of the same molecule?
Its TGI is greater than 100 µM.

And the GI50 (SR leukemia)?
The GI50 was greater than 100 µM.

What about the TGI (SR leukemia) of the same molecule?
The TGI was greater than 100 µM.

What about the GI50 (SW-620 colon) of the same molecule?
Its GI50 is greater than 100 µM.

And the TGI (SW-620 colon)?
The TGI was greater than 100 µM.

And the GI50 (T-47D breast)?
The GI50 was greater than 100 µM.

What about the TGI (T-47D breast) of the same molecule?
The TGI was greater than 100 µM.

And the GI50 (TK-10 renal)?
Its GI50 is greater than 100 µM.

What about the TGI (TK-10 renal) of the same molecule?
Its TGI is greater than 100 µM.

What about the GI50 (U251 CNS) of the same molecule?
The GI50 was greater than 100 µM.

What about the TGI (U251 CNS) of the same molecule?
Its TGI is greater than 100 µM.

And the GI50 (UACC-257 melanoma)?
Its GI50 is greater than 100 µM.

And the TGI (UACC-257 melanoma)?
Its TGI is greater than 100 µM.

What about the GI50 (UACC-62 melanoma) of the same molecule?
Its GI50 is greater than 100 µM.

What about the TGI (UACC-62 melanoma) of the same molecule?
Its TGI is greater than 100 µM.

And the GI50 (UO-31 renal)?
The GI50 was greater than 100 µM.

And the TGI (UO-31 renal)?
Its TGI is greater than 100 µM.
